Values of other authors, collected in patent US20110039877A1, “USE OF 3, 11B-CIS-DIHYDROTETRABENAZINE IN THE TREATMENT OF MULTIPLE SCLEROSIS AND AUTOIMMUNE MYELITIS” (Biovail Laboratories International (Barbados) S.R.L., priority 2007, published 2011).

Protein sequences, listed by entry. Tags and fused reporters are not part of them.
UniProt Q01827, whole entry: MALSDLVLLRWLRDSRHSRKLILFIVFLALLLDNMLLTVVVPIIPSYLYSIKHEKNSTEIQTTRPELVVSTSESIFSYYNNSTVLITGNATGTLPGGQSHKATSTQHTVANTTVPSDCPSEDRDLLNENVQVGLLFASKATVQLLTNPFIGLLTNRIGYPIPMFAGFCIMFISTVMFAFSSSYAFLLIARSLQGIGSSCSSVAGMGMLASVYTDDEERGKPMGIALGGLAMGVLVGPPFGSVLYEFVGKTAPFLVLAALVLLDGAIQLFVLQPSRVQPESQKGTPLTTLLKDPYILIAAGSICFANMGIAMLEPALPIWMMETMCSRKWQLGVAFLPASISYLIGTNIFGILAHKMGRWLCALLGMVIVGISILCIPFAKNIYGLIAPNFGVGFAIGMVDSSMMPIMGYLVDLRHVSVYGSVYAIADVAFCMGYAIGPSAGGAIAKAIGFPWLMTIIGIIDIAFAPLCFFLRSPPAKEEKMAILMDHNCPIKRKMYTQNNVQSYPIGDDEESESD

Biological target: [^3H]methoxytetrabenazine binding (VMAT2) (Rattus norvegicus, UniProt Q01827)
Conditions: in vitro; cited from earlier work

Question: With COc1cc2c(cc1O[11CH3])CCN1C[C@@H](CC(C)C)[C@H](O)C[C@H]21 (single isomer, unassigned) [(+)-α-[^11C]dihydrotetrabenazine] as the compound, how does the “Ki for [^3H]methoxytetrabenazine relative to the Ki of the other α-isomer” value read?
Answer: The value was > 2000 fold.
